The numbers were not newly measured in patent US20240239781A1, “1H-PYRAZOLE DERIVATIVES AS SIGMA LIGANDS” (ACONDICIONAMIENTO TARRASENSE, priority 2021, published 2024), which cites them from elsewhere.

Chains of the proteins cited; added tags and fusions are not shown.
UniProt Q99720, whole entry: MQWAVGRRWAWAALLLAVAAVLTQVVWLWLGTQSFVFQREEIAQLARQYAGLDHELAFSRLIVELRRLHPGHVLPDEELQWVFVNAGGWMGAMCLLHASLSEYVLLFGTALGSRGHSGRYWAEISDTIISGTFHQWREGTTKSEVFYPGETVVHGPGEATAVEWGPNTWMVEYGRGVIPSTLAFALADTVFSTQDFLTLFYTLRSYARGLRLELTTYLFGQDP

The data set deals with sigma-1 (σ1) site (Homo sapiens, UniProt Q99720). Conditions: background statement; cited from earlier work.

As to (+)-SKF-10047, the “affinity for the sigma-1 (σ1) site” value is recorded as “nanomolar affinity”.
